The values below come from US20240390429A1, “METHOD AND FORMULATION FOR TREATING RESPIRATORY DISEASES” (ENTEROBIOME INC., priority 2019, published 2024).

Converted amounts (≈) assume the structure as drawn.

For this assay, the system named is Bacteroides thetiotaomicron ATCC 29741. Nature of the assay: MIC by broth microdilution (CLSI), QC strain. Conditions: ATCC29741. A general note: Dilution methods test growth across graded concentrations, often in twofold steps.

As usually defined, the MIC is the lowest concentration found to suppress growth. Read a low MIC as a more susceptible organism. `CCC[C@@H]1C[C@@H](C(=O)N[C@@H]([C@H]2O[C@H](SC)[C@H](O)[C@@H](O)[C@H]2O)[C@H](C)Cl)N(C)C1` [CLI, clindamycin] gave an MIC of 4 µg/mL (≈ 9.41 µM).
